## Apparent affinities of Ab-14 variants for a coronavirus HR2 peptide

Values reported by Li et al. 2023, doi:10.1038/s41467-023-39022-2 (FLAb copy).

The target is the same throughout: PDVDLGDISGINAS, from the HR2 region of SARS-CoV-2 spike.

Ab-14 is the parent antibody, in scFv form: VH, then a 15-residue (Gly4Ser)3 linker, then VL. The light chain is unchanged in all variants.
VH: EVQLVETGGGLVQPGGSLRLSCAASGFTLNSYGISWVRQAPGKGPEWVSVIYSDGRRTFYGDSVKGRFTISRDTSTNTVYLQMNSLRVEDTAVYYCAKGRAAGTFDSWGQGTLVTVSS
VL: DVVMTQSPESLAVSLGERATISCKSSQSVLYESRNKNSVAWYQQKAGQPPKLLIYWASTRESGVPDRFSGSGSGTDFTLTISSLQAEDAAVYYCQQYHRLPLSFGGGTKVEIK

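The parent was found by panning a naive human phage display library on the peptide. This is the validation round: designs drawn from the data on random variants, tested in the same kind of assay. Their group label is 14H_GPLM_HC (GPLM: also part of the Gaussian process libraries; HC: hill climbing; a sequence that several methods proposed may carry one label only). The scFvs were displayed on barcoded MATa yeast, the peptide on MATalpha yeast. Mating (16 h, 30 °C) was followed by selection of diploids and sequencing of their barcodes. Read counts were normalised to the haploid input and turned into Kd by a linear fit to BCL2-family pairs of known affinity, for each replicate. Mating was done six times.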

Substitutions are numbered in sequence along the VH above, starting at 1 (not Kabat).
Numbers give log10(Kd / nM), so 0 is 1 nM and 3 is 1 µM. Smaller is tighter.
"n.d." means that the variant was in the library but no mating with the target was seen in that replicate; the authors take this as a sign of poor binding, and no number exists.
In the paper, a design with two or fewer of six values counts as a poor binder.

changes	replicates, log10 nM	control signals
T28D+T104F+D106N	n.d. n.d. n.d. n.d. n.d. n.d.	1/18 (2.27)
S31E+R56M+G103V+S107Q	n.d. n.d. n.d. n.d. n.d. n.d.	0/18
S31E+T58Q+G61T	2.74 1.63 2.40 1.20 1.33 1.09	2/18 (2.78)
T28D+G61S+R100I+A102G	n.d. n.d. n.d. n.d. 0.31 0.88	0/18
S53A+D106W+S107L	n.d. 1.51 n.d. n.d. 2.21 2.72	0/18
S31Q+G61A+A101H	1.40 0.94 1.15 0.83 0.91 0.87	2/18 (3.80)
G61S+R100S+A102G	2.02 2.05 1.83 1.89 1.62 1.61	0/18
G61S+R100Q+A101V+A102G	0.28 1.83 0.37 0.47 0.10 -0.14	0/18
G26Y+G61D+R100Q+A101L	n.d. n.d. n.d. n.d. n.d. n.d.	0/18
S31D+G103L+S107E	n.d. n.d. n.d. n.d. n.d. n.d.	0/18
N30D+D106W+S107D	n.d. n.d. n.d. n.d. n.d. n.d.	1/18 (1.59)
T28Y+G61D+A101L	n.d. n.d. 1.57 n.d. n.d. n.d.	0/18
S31D+F59Q+G61I+A101T	0.20 n.d. -0.02 -0.11 0.46 n.d.	0/18
S31D+A101H+S107K	n.d. n.d. n.d. 1.82 n.d. 1.94	0/18
S31E+A101C+G103V+S107Q	n.d. n.d. n.d. n.d. n.d. n.d.	0/18
S31E+R100H+S107F	0.89 1.25 1.09 0.83 0.71 1.09	1/18 (2.21)
G26A+G61D+R100Q+A101L	n.d. n.d. n.d. n.d. 0.97 n.d.	0/18
G61S+T104F+D106T	n.d. n.d. n.d. n.d. n.d. n.d.	0/18
S31E+G61S+G103V+S107Q	n.d. n.d. n.d. n.d. n.d. n.d.	1/18 (2.38)
S31E+R56I+A101N	-0.16 0.03 0.25 -0.15 -0.34 0.01	0/18
T28D+G61S+A101N	0.85 1.31 1.47 1.39 n.d. 1.01	0/18
T28K+G61D+R100Q+A101L	0.12 1.12 n.d. n.d. n.d. 1.39	0/18
S31D+A101V+S107I	0.57 0.63 0.80 0.42 0.67 1.32	1/18 (2.66)
T28E+S31E+G61M+A101F	2.27 1.62 2.00 2.16 1.56 2.46	0/18
S31D+R56K+F59M+G61I	0.93 1.01 0.96 0.68 0.98 0.58	0/18
G61D+R100M+A101L	1.26 1.39 0.79 2.28 1.12 1.14	0/18
S31E+G61T+R100Q+A101F	0.93 0.70 0.89 1.01 0.97 0.91	3/18 (2.58)
G61S+R100Y	0.41 0.70 0.54 0.32 0.03 0.48	1/18 (2.71)
T28Q+S31E+G61S+T104K	n.d. n.d. n.d. n.d. n.d. n.d.	0/18
S31D+F59Q+G61D	n.d. n.d. 2.45 1.47 n.d. 1.41	0/18
S31E+G61T+A101H	0.63 0.45 0.86 0.84 0.54 1.01	1/18 (2.41)
T28Q+S31E+G61T+A101F	0.46 -0.14 0.33 0.81 0.99 0.84	0/18
S31E+D62N+G103V+S107Q	n.d. n.d. n.d. n.d. n.d. n.d.	0/18
S31E+A101W+S107T	1.59 0.22 1.07 1.57 1.07 1.05	0/18
T28D+T104S	n.d. n.d. n.d. n.d. n.d. n.d.	0/18
F27Y+G61D+R100Q+A101L	n.d. n.d. n.d. 2.00 3.54 n.d.	0/18
S31Q+R56K+G61S	1.33 0.45 1.28 0.59 1.49 0.98	0/18
L29I+G61S+R100T	1.18 2.26 n.d. 2.33 1.74 1.77	0/18
G61S+R100T+A102G+S107T	2.02 1.82 1.75 1.20 1.48 1.37	1/18 (1.97)
S31D+G61A+D106M	n.d. n.d. 2.81 n.d. n.d. n.d.	0/18
S53A+F105L	n.d. 0.62 1.74 1.11 1.02 n.d.	1/18 (1.28)
T28D+A101E+T104I	n.d. n.d. n.d. n.d. n.d. n.d.	0/18
S31E+G61S+R100E+S107K	0.22 -0.04 0.64 0.76 0.14 0.69	0/18
T28D+G61C+A101V	0.56 0.72 0.55 0.08 0.64 0.78	0/18
N30E+G61S+A102G	1.03 1.32 1.92 2.46 1.03 1.11	2/18 (2.61)

Excerpt, the final 4 entries:

| changes | replicates, log10 nM | control signals |
|---|---|---|
| T28D+A101E+T104I | n.d. n.d. n.d. n.d. n.d. n.d. | 0/18 |
| S31E+G61S+R100E+S107K | 0.22 -0.04 0.64 0.76 0.14 0.69 | 0/18 |
| T28D+G61C+A101V | 0.56 0.72 0.55 0.08 0.64 0.78 | 0/18 |
| N30E+G61S+A102G | 1.03 1.32 1.92 2.46 1.03 1.11 | 2/18 (2.61) |

The parent sequence was in this pool as ten entries: three were never detected, three once, and four in most replicates, with averages from 0.34 to 2.37.
A sequence measured in both rounds can read differently, since the two assays cover different ranges.
Nonspecific signal, from three strains lacking the peptide, appeared in 1% of pairings of all heavy chain designs, centred on 2.08 (5% of these signals below 0.84); values are not corrected for it. The control count says in how many pairings with the empty strains this scFv gave a signal, with their mean in brackets.